Properties, as collected for the OPERA models

The melting point is given in degrees Celsius. Boiling points are in °C, nominally at 760 mmHg. logP is the log10 of the octanol-water partition coefficient; higher is more lipophilic. Water solubility is log10 of mol/L, nominally at 25 °C; higher is more soluble. Vapor pressures (log10 mmHg) refer to near room temperature, 15 to 30 °C; higher is more volatile. The Henry's law constant is on a log10 scale in atm·m3/mol (set defined at 25 °C); higher favours air over water. The unbound fraction in human plasma runs from 0 (all bound) to 1 (all free). Intrinsic clearance (human, µL/min per 10^6 hepatocytes): higher is faster turnover, and 0 stands for none detected.

The entry for Clc1cccc(-c2c(Cl)cccc2Cl)c1Cl lists logP (octanol/water) 5.53 and vapor pressure -2.876 (log10 mmHg). Listed for OCc1cccc(Oc2ccccc2)c1: logP (octanol/water) 2.797 and log S -2.742 (log10 mol/L). For CC1CNC(=O)O1 (stereo unspecified) the data give BP 305 °C and vapor pressure -1.738 (log10 mmHg). Listed for CC(C)CCCCCCCCCCOC(=O)CCCCC(=O)OCCCCCCCCCCC(C)C: MP -61 °C and BP 321.1 °C and log S -5.659 (log10 mol/L) and vapor pressure -4.393 (log10 mmHg).

The entry for CCOc1cc(C=O)ccc1O[C@@H]1O[C@H](CO)[C@@H](O)[C@H](O)[C@H]1O lists MP 206 °C and logP (octanol/water) -0.76. CC(C)OC(=O)N[C@H](C(=O)N[C@H](C)c1nc2ccc(F)cc2s1)C(C)C has MP 160 °C and log S -4.46 (log10 mol/L) and vapor pressure -5.648 (log10 mmHg) and log H -7.065 (log10 atm·m3/mol). Listed for O=[N+]([O-])c1cc(O)ccc1NCCCO: logP (octanol/water) 1.35 and log S -2.136 (log10 mol/L) and vapor pressure -6.314 (log10 mmHg). COc1cc(NC(C)CCCN)c2ncccc2c1 (stereo unspecified) is reported with BP 177 °C and logP (octanol/water) 2.1 and log S -3.663 (log10 mol/L) and plasma fu 0.284.

C=C1COC(C)(C)O1 has BP 106 °C and logP (octanol/water) 1.6 and log S -1.735 (log10 mol/L) and vapor pressure 0.526 (log10 mmHg). CC(=O)C(/N=N/c1ccc(C)cc1[N+](=O)[O-])C(=O)Nc1ccc(Cl)cc1 (stereo partly drawn) has MP 236 °C and log S -7.605 (log10 mol/L). For C/C=C/C(=O)Oc1c(C(C)CCCCCC)cc([N+](=O)[O-])cc1[N+](=O)[O-] (stereo partly drawn) the data give log S -6.17 (log10 mol/L) and vapor pressure -7.226 (log10 mmHg). Listed for O=P(OCCCl)(OCCCl)OCC(CCl)(CCl)COP(=O)(OCCCl)OCCCl: MP 50.5 °C and logP (octanol/water) 2.83.

CCCCOCCOCC(=O)[O-].[Na+] has logP (octanol/water) -1.89 and vapor pressure -6.755 (log10 mmHg). Listed for Cc1nc2ccccn2c(=O)c1CCCl: MP 143.6 °C and logP (octanol/water) 1.9 and log S -2.471 (log10 mol/L) and vapor pressure -6.031 (log10 mmHg). The entry for O=C(O)CN=C(O)c1cccc([N+](=O)[O-])c1 lists MP 91 °C and log S -1.782 (log10 mol/L). For CS(=O)(=O)c1ccc([C@@H](C[C@H]2CCC(=O)C2)C(=O)Nc2cnccn2)cc1Cl the data give plasma fu 0.48 and Clint 6.26 µL/min/10^6 cells.

The entry for C=C(C)COCC/C=C\CC lists MP -76 °C and logP (octanol/water) 4.09 and log S -3.292 (log10 mol/L) and vapor pressure -0.111 (log10 mmHg). The entry for C=CC(F)(F)C(F)(F)C(F)(F)C(F)(F)C(F)(F)C(F)(F)C(F)(F)C(F)(F)F lists logP (octanol/water) 5.93 and log S -8.649 (log10 mol/L) and vapor pressure -0.952 (log10 mmHg). The entry for CC(c1ncncc1F)C(O)(Cn1cncn1)c1ccc(F)cc1F.CC1(C)C2CCC1(CS(=O)(=O)O)C(=O)C2 (stereo unspecified) lists logP (octanol/water) 1.73 and log S -2.367 (log10 mol/L) and vapor pressure -9.694 (log10 mmHg). CN(C)CCOCCN(C)CCCN is reported with MP -76 °C and BP 270 °C and vapor pressure -1.454 (log10 mmHg).

Listed for C=CCCC(=O)Oc1ccccc1: BP 243.8 °C and logP (octanol/water) 2.76 and log S -2.716 (log10 mol/L) and vapor pressure -1.624 (log10 mmHg). Listed for CCCC[C@H]1CC[C@H](C2CCC(=O)CC2)CC1: MP 42.85 °C and logP (octanol/water) 4.385 and vapor pressure -4.523 (log10 mmHg). For O=C1NC(=O)c2ccc3c4cccc5cccc(c6ccc1c2c63)c54 the data give logP (octanol/water) 4.6 and log S -6.016 (log10 mol/L). CCOC(=O)C(C#N)=C(c1ccccc1)c1ccccc1 has log S -7.744 (log10 mol/L) and vapor pressure -5.767 (log10 mmHg).

For CC(=O)OCC=Cc1ccccc1 the data give MP -3.7 °C and log S -2.75 (log10 mol/L) and vapor pressure -0.862 (log10 mmHg). CC(C)CC(=O)CC(C)CC(C)C (stereo unspecified) has MP -75.2 °C and log S -3.923 (log10 mol/L) and vapor pressure -1.255 (log10 mmHg). For CC(=O)[C@H]1CC[C@H]2[C@@H]3C=CC4=CC(=O)CC[C@@]4(C)[C@@H]3CC[C@]12C the data give logP (octanol/water) 3.4 and log S -4.808 (log10 mol/L) and plasma fu 0.03. For CCC[C@H]1CC[C@H]([C@H]2CC[C@H](C=O)CC2)CC1 the data give MP 71 °C and logP (octanol/water) 4.7 and log S -6.897 (log10 mol/L) and vapor pressure -4.34 (log10 mmHg).

For CC[C@H]1OC(=O)[C@H](C)C(=O)[C@H](C)[C@@H](O[C@@H]2O[C@H](C)C[C@H](N(C)C)[C@H]2O)[C@](C)(OC)C[C@@H](C)C(=O)[C@H](C)[C@H]2N(CCCCn3cnc(-c4cccnc4)c3)C(=O)O[C@]12C the data give MP 187.5 °C and logP (octanol/water) 3 and log S -4.458 (log10 mol/L) and plasma fu 0.4. For CCCCCCCCCCCCCCCCCCCCCC(=O)O the data give logP (octanol/water) 4.616 and vapor pressure -6.73 (log10 mmHg). The entry for Cc1ccc(S(=O)(=O)O)cc1N lists logP (octanol/water) -1.53 and log S -1.032 (log10 mol/L). The entry for CCOCOC1CCCCCCCCCCC1 lists logP (octanol/water) 5.4 and log S -5.335 (log10 mol/L) and vapor pressure -2.654 (log10 mmHg).

Listed for CCN1CCN(CCC(=O)OCC(CC)(COC(=O)CCN2CCN(CC)CC2)COC(=O)CCN2CCN(CC)CC2)CC1: BP 278.3 °C and vapor pressure -9.113 (log10 mmHg). The entry for Clc1ccc(Oc2c(Cl)c(Cl)cc(Cl)c2Cl)c(Cl)c1Cl lists MP 81 °C and log S -9.09 (log10 mol/L). For CCOC(=O)C1C2CCC(CC2)C1N.Cl (stereo unspecified) the data give MP 148.6 °C and logP (octanol/water) -0.55 and vapor pressure -5.077 (log10 mmHg).

Excerpt, the final 5 entries:

Cc1ccc(S(=O)(=O)O)cc1N is reported with logP (octanol/water) -1.53 and log S -1.032 (log10 mol/L).
CCOCOC1CCCCCCCCCCC1 is reported with logP (octanol/water) 5.4 and log S -5.335 (log10 mol/L) and vapor pressure -2.654 (log10 mmHg).
CCN1CCN(CCC(=O)OCC(CC)(COC(=O)CCN2CCN(CC)CC2)COC(=O)CCN2CCN(CC)CC2)CC1 is reported with BP 278.3 °C and vapor pressure -9.113 (log10 mmHg).
Clc1ccc(Oc2c(Cl)c(Cl)cc(Cl)c2Cl)c(Cl)c1Cl is reported with MP 81 °C and log S -9.09 (log10 mol/L).
CCOC(=O)C1C2CCC(CC2)C1N.Cl (stereo unspecified) is reported with MP 148.6 °C and logP (octanol/water) -0.55 and vapor pressure -5.077 (log10 mmHg).

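OPERA's authors assembled the values from existing databases and did not measure them anew. A listed value is a point estimate from one report or more. How each value was measured is not recorded, so precision varies. Where a salt, mixture or single isomer is drawn, the source does not say that exactly this form was tested. Unmarked limits or estimates from the upstream databases cannot be ruled out.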

Source: data files of OPERA 2.9 (Mansouri et al.), github.com/kmansouri/OPERA.